Consider 1 substance from patent publication US20060234327A1, “Methods for identifying enzyme inhibitors and protein kinases” (priority 2003, published 2006).

By UniProt entry, the sequences of proteins in these tests, tags left out. Where a name states a change or a piece, a line headed by the entry shows the natural chain unless it says otherwise.
UniProt P36897: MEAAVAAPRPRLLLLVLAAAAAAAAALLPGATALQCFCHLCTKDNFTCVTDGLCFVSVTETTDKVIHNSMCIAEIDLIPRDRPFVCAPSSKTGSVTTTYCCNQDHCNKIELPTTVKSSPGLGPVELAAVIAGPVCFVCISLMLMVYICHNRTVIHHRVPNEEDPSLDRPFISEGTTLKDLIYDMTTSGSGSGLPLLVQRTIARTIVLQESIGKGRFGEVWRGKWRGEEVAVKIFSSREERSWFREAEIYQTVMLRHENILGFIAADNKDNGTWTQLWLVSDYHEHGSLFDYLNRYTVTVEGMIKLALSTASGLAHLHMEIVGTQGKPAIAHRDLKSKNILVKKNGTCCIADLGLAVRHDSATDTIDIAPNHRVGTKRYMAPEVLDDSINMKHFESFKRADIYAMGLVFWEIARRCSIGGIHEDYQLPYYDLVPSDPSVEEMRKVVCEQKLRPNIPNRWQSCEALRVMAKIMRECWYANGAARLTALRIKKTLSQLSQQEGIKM
UniProt P36896: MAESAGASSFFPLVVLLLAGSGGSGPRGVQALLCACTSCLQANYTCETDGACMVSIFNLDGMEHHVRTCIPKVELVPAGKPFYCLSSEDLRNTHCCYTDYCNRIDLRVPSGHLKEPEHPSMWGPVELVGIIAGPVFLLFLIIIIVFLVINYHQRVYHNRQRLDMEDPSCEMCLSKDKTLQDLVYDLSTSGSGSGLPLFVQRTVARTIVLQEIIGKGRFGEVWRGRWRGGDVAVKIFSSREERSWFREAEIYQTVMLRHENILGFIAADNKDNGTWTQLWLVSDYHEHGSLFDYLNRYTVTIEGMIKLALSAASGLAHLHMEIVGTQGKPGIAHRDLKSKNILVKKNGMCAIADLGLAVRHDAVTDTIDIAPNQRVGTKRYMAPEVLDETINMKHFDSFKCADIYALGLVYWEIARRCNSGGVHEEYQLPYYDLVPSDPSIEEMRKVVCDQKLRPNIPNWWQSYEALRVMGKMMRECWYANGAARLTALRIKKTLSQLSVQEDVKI
UniProt P53778: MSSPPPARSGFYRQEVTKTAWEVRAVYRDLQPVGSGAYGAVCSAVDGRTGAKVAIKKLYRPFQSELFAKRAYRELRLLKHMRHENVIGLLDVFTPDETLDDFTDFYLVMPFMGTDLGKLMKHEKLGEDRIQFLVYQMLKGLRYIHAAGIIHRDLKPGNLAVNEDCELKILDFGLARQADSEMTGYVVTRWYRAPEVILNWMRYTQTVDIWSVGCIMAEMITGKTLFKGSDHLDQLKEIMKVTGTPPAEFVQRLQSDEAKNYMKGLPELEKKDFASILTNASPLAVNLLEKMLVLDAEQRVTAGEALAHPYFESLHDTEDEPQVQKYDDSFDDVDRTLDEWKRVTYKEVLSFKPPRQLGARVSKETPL
UniProt P02769: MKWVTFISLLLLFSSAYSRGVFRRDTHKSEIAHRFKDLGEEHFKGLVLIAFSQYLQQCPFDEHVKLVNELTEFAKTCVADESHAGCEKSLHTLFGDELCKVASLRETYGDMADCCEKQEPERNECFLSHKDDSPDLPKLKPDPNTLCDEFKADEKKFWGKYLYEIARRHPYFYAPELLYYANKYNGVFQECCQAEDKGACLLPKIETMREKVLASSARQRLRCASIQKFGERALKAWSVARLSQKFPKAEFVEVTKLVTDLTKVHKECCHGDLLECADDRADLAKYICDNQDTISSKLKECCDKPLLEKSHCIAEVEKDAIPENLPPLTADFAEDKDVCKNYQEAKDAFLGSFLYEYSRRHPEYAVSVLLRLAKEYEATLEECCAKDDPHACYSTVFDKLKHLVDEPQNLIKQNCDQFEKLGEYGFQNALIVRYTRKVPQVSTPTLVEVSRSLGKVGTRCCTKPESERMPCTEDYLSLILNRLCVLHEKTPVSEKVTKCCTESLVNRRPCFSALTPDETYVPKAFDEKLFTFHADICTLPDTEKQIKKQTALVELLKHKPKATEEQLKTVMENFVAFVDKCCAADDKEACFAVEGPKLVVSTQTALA

A value given as a limit tells only on which side of the number the result lay.

Assay [1] deals with ALK5 (kinase domain of the TGF-β type I receptor) (Homo sapiens, UniProt P36897). Put plainly: ^14C-FSBA affinity labeling detected by autoradiography. In kind it is binding.
Another assay concerns the target ALK4 (Homo sapiens, UniProt P36896). Put plainly: FSBA covalent modification and protection by competitors, followed by LC/MS. Type of assay: binding.
A further assay addresses ALK5 (Homo sapiens, UniProt P36897). The assay is described as above. In kind it is binding.
Assay [2] has as its target T1, CDK2 (Homo sapiens, UniProt P24941). Described as above. Type of assay: binding. The settings on record: for Mass Peak (relative percentage), FSBA-modified CDK2 peak: FSBA 10 μM alone.
For another assay, the target named is P38γ (Homo sapiens, UniProt P53778). The following applies: unphosphorylated and phosphorylated forms; LC/MS; Fox et al. (1999); cited from earlier work.
The next assay addresses BSA (Bos taurus, UniProt P02769). Put plainly: FSBA covalent modification followed by LC/MS. The settings on record: same conditions as for the kinases.
A further assay relates to trypsin. Put plainly: FSBA covalent modification followed by LC/MS. The settings on record: same conditions as for the kinases.
In assay [3] the target is T1, CDK2. Put plainly: ^14C-FSBA affinity labeling detected by autoradiography. The following applies: unheated; one hour at room temperature.
The mark [4] stands for this setting: FSBA at room temperature, LC/MS.

p-Flurosulfonylbenzoyl 5′-adenosine: the “^14C-FSBA labeling of ALK5 by autoradiography” value was “did not label heat-denatured ALK5” in assay [1] (ALK5 heated to 95° C. for 10 minutes before ^14C-FSBA) and “labeled unheated ALK5” in assay [1] (unheated ALK5, one hour at room temperature). Besides, in assay [1] (cold FSBA, autoradiography), the “Cold competition with ^14C-FSBA binding to ALK5” value is recorded as “competed with the binding of ^14C-FSBA to ALK5 kinase”. Besides, on ALK4 (FSBA 10 μM alone, peak 35,459 Da), the “Mass Peak (relative percentage), FSBA-modified ALK4 peak” value is 35,459 Da (100%). In addition, the “Time to complete covalent modification of ALK4 by FSBA” value at ALK4 (setting [4]) was “about 1 hour”. Also, the “Mass Peak (relative percentage), FSBA-modified ALK5 peak” value at ALK5 (FSBA 10 μM alone, peak 35,405 Da) was 35,405 Da (100%). Moreover, the “Time by which the ALK5 parent peak was converted to the FSBA-modified peak” value on ALK5 (setting [4]) was at most 60 min. For the same substance, the “Mass Peak (relative percentage), FSBA-modified CDK2 peak” value at CDK2 [2] (peak 33,404 Da (Table 2)) is recorded as 33,404 Da (100%); at CDK2 [2] (peak 34,404 Da (Table 1)), 34,404 Da (100%). For the same substance, the “Time to complete covalent modification of CDK2 by FSBA” value at CDK2 [2] (setting [4]) is on record as “about 1 hour”. In addition, the “Affinity labeling of P38γ by FSBA” value at P38γ was “modified by FSBA”. The “Covalent modification of BSA by FSBA” value at BSA was “did not modify”. In addition, the “Covalent modification of trypsin by FSBA” value with trypsin is reported as “did not modify”. For the same substance, the “^14C-FSBA labeling of CDK2 by autoradiography” value at CDK2 [3] is on record as “labeled”.
